# CycPeptMPDB entries from one study

Source: CycPeptMPDB (Li et al. 2023), which took these values from Kelly et al. 2021, doi:10.1021/jacs.0c06115.

PAMPA is the parallel artificial membrane permeability assay, which has no cells and reads passive diffusion. Permeability is in 10^-6 cm/s, converted from the database's log10 values; higher is more permeable.

CC(=O)N[C@@H]1C(=O)N2CCC[C@H]2C(=O)N(C)[C@H](CC(C)C)C(=O)N[C@H](CC(C)C)C(=O)N(C)[C@H](CC(C)C)C(=O)N[C@H](CC(C)C)C(=O)N(C)[C@H](C)C(=O)N[C@@H](CC(C)C)C(=O)N2CCC[C@@H]2C(=O)O[C@@H]1C is reported with PAMPA 2.5 × 10^-6 cm/s. Listed for CC[C@@H]1NC(=O)[C@@H](CC)NC(=O)[C@@H](NC(=O)[C@@H](CC(C)C)N(C)C(=O)[C@@H]2CCCN2C(C)=O)[C@@H](C)OC(=O)[C@@H]2CCCN2C(=O)[C@H](CC(C)C)NC(=O)[C@@H](C)N(C)C(=O)[C@@H](CC2CCCCC2)NC1=O: PAMPA 2.2 × 10^-6 cm/s. For CC(=O)N1CCC[C@H]1C(=O)N(C)[C@H](CC(C)C)C(=O)N[C@@H]1C(=O)N[C@H](Cc2ccc(F)c(F)c2)C(=O)N[C@@H](Cc2ccccc2)C(=O)N[C@H](Cc2ccc(F)c(F)c2)C(=O)N(C)[C@H](C)C(=O)N[C@@H](CC(C)C)C(=O)N2CCC[C@H]2C(=O)O[C@@H]1C the data give PAMPA 0.74 × 10^-6 cm/s. COc1ccc(C[C@@H]2NC(=O)[C@@H](CC3CCCCC3)NC(=O)[C@@H](NC(=O)[C@@H](CC(C)C)N(C)C(=O)[C@@H]3CCCN3C(C)=O)[C@@H](C)OC(=O)[C@@H]3CCCN3C(=O)[C@H](CC(C)C)NC(=O)[C@@H](C)N(C)C(=O)[C@@H](Cc3ccc(F)c(F)c3)NC2=O)cc1 has PAMPA 0.22 × 10^-6 cm/s. For CCC[C@H]1NC(=O)[C@@H](NC(=O)[C@@H](CC(C)C)N(C)C(=O)[C@@H]2CCCN2C(C)=O)[C@@H](C)OC(=O)[C@@H]2CCCN2C(=O)[C@H](CC(C)C)NC(=O)[C@@H](C)N(C)C(=O)[C@@H](CCC)NC(=O)[C@H](Cc2ccccc2)NC1=O the data give PAMPA 1.9 × 10^-6 cm/s. CC(=O)N1CCC[C@H]1C(=O)N[C@@H]1C(=O)N(C)[C@H](CC(C)C)C(=O)N(C)[C@@H](CC(C)C)C(=O)N(C)[C@H](CC(C)C)C(=O)N(C)[C@@H](CC(C)C)C(=O)N[C@@H](C)C(=O)N[C@@H](CC(C)C)C(=O)N2CCC[C@@H]2C(=O)O[C@@H]1C has PAMPA 7.6 × 10^-6 cm/s. For CCC[C@@H]1NC(=O)[C@@H](CC)NC(=O)[C@@H](NC(=O)[C@@H](CC(C)C)N(C)C(=O)[C@@H]2CCCN2C(C)=O)[C@@H](C)OC(=O)[C@@H]2CCCN2C(=O)[C@H](CC(C)C)NC(=O)[C@@H](C)N(C)C(=O)[C@@H](Cc2ccc(F)cc2)NC1=O the data give PAMPA 1.1 × 10^-6 cm/s. For CC[C@@H]1NC(=O)[C@@H](Cc2ccc(F)c(F)c2)NC(=O)[C@@H](NC(=O)[C@@H](CC(C)C)N(C)C(=O)[C@@H]2CCCN2C(C)=O)[C@@H](C)OC(=O)[C@@H]2CCCN2C(=O)[C@H](CC(C)C)NC(=O)[C@@H](C)N(C)C(=O)[C@@H](Cc2cccc3ccccc23)NC1=O the data give PAMPA 1.5 × 10^-6 cm/s.

COc1ccc(C[C@@H]2NC(=O)[C@@H](Cc3ccc(F)cc3)NC(=O)[C@@H](NC(=O)[C@@H](CC(C)C)N(C)C(=O)[C@@H]3CCCN3C(C)=O)[C@@H](C)OC(=O)[C@@H]3CCCN3C(=O)[C@H](CC(C)C)NC(=O)[C@@H](C)N(C)C(=O)[C@@H](CC(C)C)NC2=O)cc1 has PAMPA 2.1 × 10^-6 cm/s. CC[C@H]1NC(=O)[C@@H](NC(=O)[C@@H](CC(C)C)N(C)C(=O)[C@@H]2CCCN2C(C)=O)[C@@H](C)OC(=O)[C@@H]2CCCN2C(=O)[C@H](CC(C)C)NC(=O)[C@@H](C)N(C)C(=O)[C@@H](Cc2ccccc2)NC(=O)[C@H](Cc2ccccc2)NC1=O is reported with PAMPA 2.2 × 10^-6 cm/s. COc1ccc(C[C@@H]2NC(=O)[C@@H](Cc3cccc4ccccc34)NC(=O)[C@@H](NC(=O)[C@@H](CC(C)C)N(C)C(=O)[C@@H]3CCCN3C(C)=O)[C@@H](C)OC(=O)[C@@H]3CCCN3C(=O)[C@H](CC(C)C)NC(=O)[C@@H](C)N(C)C(=O)[C@@H](Cc3ccc(F)cc3)NC2=O)cc1 has PAMPA 0.14 × 10^-6 cm/s. CC(=O)N1CCC[C@H]1C(=O)N(C)[C@H](CC(C)C)C(=O)N[C@@H]1C(=O)N[C@H](Cc2ccccc2)C(=O)N[C@@H](CCc2ccccc2)C(=O)N[C@H](Cc2ccccc2)C(=O)N(C)[C@H](C)C(=O)N[C@@H](CC(C)C)C(=O)N2CCC[C@H]2C(=O)O[C@@H]1C has PAMPA 2.6 × 10^-6 cm/s. CCC[C@H]1NC(=O)[C@@H](NC(=O)[C@@H](CC(C)C)N(C)C(=O)[C@@H]2CCCN2C(C)=O)[C@@H](C)OC(=O)[C@@H]2CCCN2C(=O)[C@H](CC(C)C)NC(=O)[C@@H](C)N(C)C(=O)[C@@H](CC2CCCCC2)NC(=O)[C@H](Cc2ccc(OC)cc2)NC1=O is reported with PAMPA 0.14 × 10^-6 cm/s. The entry for CC(=O)N[C@@H]1C(=O)N2CCC[C@H]2C(=O)N(C)[C@H](CC(C)C)C(=O)N[C@H](CC(C)C)C(=O)N(C)[C@H](CC(C)C)C(=O)N[C@H](CC(C)C)C(=O)N(C)[C@@H](C)C(=O)N[C@@H](CC(C)C)C(=O)N2CCC[C@@H]2C(=O)O[C@@H]1C lists PAMPA 4.6 × 10^-6 cm/s. CC(=O)N1CCC[C@H]1C(=O)N[C@@H]1C(=O)N(C)[C@H](CC(C)C)C(=O)N(C)[C@@H](CC(C)C)C(=O)N[C@@H](CC(C)C)C(=O)N(C)[C@@H](CC(C)C)C(=O)N(C)[C@@H](C)C(=O)N[C@@H](CC(C)C)C(=O)N2CCC[C@@H]2C(=O)O[C@@H]1C is reported with PAMPA 4 × 10^-6 cm/s. For CC(=O)N[C@@H]1C(=O)N2CCC[C@H]2C(=O)N(C)[C@H](CC(C)C)C(=O)N[C@H](CC(C)C)C(=O)N[C@H](CC(C)C)C(=O)N(C)[C@H](CC(C)C)C(=O)N[C@@H](C)C(=O)N[C@@H](CC(C)C)C(=O)N2CCC[C@@H]2C(=O)O[C@@H]1C the data give PAMPA 0.14 × 10^-6 cm/s.

Listed for CC(=O)N1CCC[C@H]1C(=O)N(C)[C@H](CC(C)C)C(=O)N[C@@H]1C(=O)N[C@H](Cc2ccc(F)c(F)c2)C(=O)N[C@@H](Cc2ccc(F)cc2)C(=O)N[C@H](Cc2cccc3ccccc23)C(=O)N(C)[C@H](C)C(=O)N[C@@H](CC(C)C)C(=O)N2CCC[C@H]2C(=O)O[C@@H]1C: PAMPA 0.17 × 10^-6 cm/s. The entry for COc1ccc(C[C@@H]2NC(=O)[C@@H](Cc3cccc4ccccc34)NC(=O)[C@@H](NC(=O)[C@@H](CC(C)C)N(C)C(=O)[C@@H]3CCCN3C(C)=O)[C@@H](C)OC(=O)[C@@H]3CCCN3C(=O)[C@H](CC(C)C)NC(=O)[C@@H](C)N(C)C(=O)[C@@H](Cc3ccc(F)c(F)c3)NC2=O)cc1 lists PAMPA 0.14 × 10^-6 cm/s. The entry for CC(=O)N1CCC[C@H]1C(=O)N(C)[C@H](CC(C)C)C(=O)N[C@@H]1C(=O)N[C@H](CC(C)C)C(=O)N[C@@H](CCc2ccccc2)C(=O)N[C@H](Cc2ccc(F)cc2)C(=O)N(C)[C@H](C)C(=O)N[C@@H](CC(C)C)C(=O)N2CCC[C@H]2C(=O)O[C@@H]1C lists PAMPA 5 × 10^-6 cm/s. The entry for CC(=O)N1CCC[C@H]1C(=O)N[C@@H]1C(=O)N(C)[C@H](CC(C)C)C(=O)N[C@H](CC(C)C)C(=O)N(C)[C@H](CC(C)C)C(=O)N(C)[C@@H](CC(C)C)C(=O)N(C)[C@@H](C)C(=O)N[C@@H](CC(C)C)C(=O)N2CCC[C@@H]2C(=O)O[C@@H]1C lists PAMPA 3.1 × 10^-6 cm/s. CC[C@H]1NC(=O)[C@@H](NC(=O)[C@@H](CC(C)C)N(C)C(=O)[C@@H]2CCCN2C(C)=O)[C@@H](C)OC(=O)[C@@H]2CCCN2C(=O)[C@H](CC(C)C)NC(=O)[C@@H](C)N(C)C(=O)[C@@H](CC2CCCCC2)NC(=O)[C@H](Cc2ccc(OC)cc2)NC1=O is reported with PAMPA 3.5 × 10^-6 cm/s. For COc1ccc(C[C@@H]2NC(=O)[C@@H](CC3CCCCC3)NC(=O)[C@@H](NC(=O)[C@@H](CC(C)C)N(C)C(=O)[C@@H]3CCCN3C(C)=O)[C@@H](C)OC(=O)[C@@H]3CCCN3C(=O)[C@H](CC(C)C)NC(=O)[C@@H](C)N(C)C(=O)[C@@H](Cc3ccccc3)NC2=O)cc1 the data give PAMPA 0.32 × 10^-6 cm/s.

Excerpt, the opening 2 entries:

For CC(=O)N[C@@H]1C(=O)N2CCC[C@H]2C(=O)N(C)[C@H](CC(C)C)C(=O)N[C@H](CC(C)C)C(=O)N(C)[C@H](CC(C)C)C(=O)N[C@H](CC(C)C)C(=O)N(C)[C@H](C)C(=O)N[C@@H](CC(C)C)C(=O)N2CCC[C@@H]2C(=O)O[C@@H]1C the data give PAMPA 2.5 × 10^-6 cm/s.
For CC[C@@H]1NC(=O)[C@@H](CC)NC(=O)[C@@H](NC(=O)[C@@H](CC(C)C)N(C)C(=O)[C@@H]2CCCN2C(C)=O)[C@@H](C)OC(=O)[C@@H]2CCCN2C(=O)[C@H](CC(C)C)NC(=O)[C@@H](C)N(C)C(=O)[C@@H](CC2CCCCC2)NC1=O the data give PAMPA 2.2 × 10^-6 cm/s.

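The data file gives no further conditions (lipid, pH, time, direction or concentration), and values from different papers need not be comparable. Other peptides of the study may be missing here. Entries at the database's floor value (log10 P of -10) are not listed.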